Values of other authors, collected in paper PMC4023695 (ACS medicinal chemistry letters, 2014).

Chains of the proteins cited; added tags and fusions are not shown.
UniProt P33535, whole entry: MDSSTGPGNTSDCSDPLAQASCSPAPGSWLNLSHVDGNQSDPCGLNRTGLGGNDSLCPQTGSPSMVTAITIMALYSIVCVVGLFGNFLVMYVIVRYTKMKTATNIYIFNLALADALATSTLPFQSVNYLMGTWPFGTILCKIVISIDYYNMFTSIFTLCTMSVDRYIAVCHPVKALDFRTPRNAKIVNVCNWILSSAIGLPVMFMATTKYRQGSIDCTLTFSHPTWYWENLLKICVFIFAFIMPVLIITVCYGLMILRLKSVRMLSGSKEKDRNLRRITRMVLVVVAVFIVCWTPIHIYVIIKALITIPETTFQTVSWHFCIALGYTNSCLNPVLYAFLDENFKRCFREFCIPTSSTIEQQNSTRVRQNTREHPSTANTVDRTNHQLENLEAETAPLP

Target: MOR (Rattus norvegicus, UniProt P33535)
Conditions: read-out: Kiμ; DALDA literature characterisation, no reference given; cited from earlier work

## Tyr-D-Arg-Phe-Lys-NH2 [DALDA]
  Ki: 1.69 nM
